Chains of the proteins cited; added tags and fusions are not shown. Residues count along the entry.
UniProt P31994, 43-217: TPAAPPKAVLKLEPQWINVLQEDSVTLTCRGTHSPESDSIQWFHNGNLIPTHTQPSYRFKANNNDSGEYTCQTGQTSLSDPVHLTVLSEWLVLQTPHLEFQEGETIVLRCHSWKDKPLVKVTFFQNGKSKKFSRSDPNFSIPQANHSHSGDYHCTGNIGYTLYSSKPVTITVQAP
UniProt P12318, 34-217: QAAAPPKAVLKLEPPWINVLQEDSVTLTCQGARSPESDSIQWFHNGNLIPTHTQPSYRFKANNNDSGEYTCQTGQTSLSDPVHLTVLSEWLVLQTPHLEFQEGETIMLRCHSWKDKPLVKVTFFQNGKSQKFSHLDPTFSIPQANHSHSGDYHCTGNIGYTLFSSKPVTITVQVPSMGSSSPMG

In paper PMC10214761:

Key:
[1] = biological target: human Fcγ receptor IIb/c (hFcγRIIb/c) (human) (UniProt P31994); assay: SPR; CM5 chip with anti-His-tag antibodies (~600 RU); 5 μg/mL His-tagged receptor captured; 100 μg/mL ICI or control flowed for 60 s; response read 5 s before the end of the injection; 25 °C
[2] = biological target: human Fcγ receptor IIa (hFcγRIIa) (human) (UniProt P12318); assay: as above

response units, mean of three runs [1] [RU]	response units, run 1 [1] [RU]	response units, run 2 [1] [RU]	response units, run 3 [1] [RU]	response units, mean of three runs [2] [RU]	response units, run 1 [2] [RU]	response units, run 2 [2] [RU]	response units, run 3 [2] [RU]	Substance
71	81	71	60	133	142	144	115	IgG1k from human myeloma plasma (IgG1 MC) (antibody)
49	44	65	38	27	22	45		IgG4k from human myeloma plasma (IgG4 MC) (antibody)
